Source: patent US20110160249A1, “5-LIPOXYGENASE-ACTIVATING PROTEIN INHIBITOR” (priority 2008, published 2011)

Assay: Solubility Profile in Common Organic Solvents
Format: physicochemical

SMILES: CCOc1ccc(-c2ccc(Cn3c(CC(C)(C)C(=O)[O-])c(SC(C)(C)C)c4cc(OCc5ccc(C)cn5)ccc43)cc2)cn1.[Na+] [Compound 2, sodium 3-[3-(tert-butylsulfanyl)-1-[4-(6-ethoxy-pyridin-3-yl)benzyl]-5-(5-methyl-pyridin-2-yl-methoxy)-1H-indol-2-yl]-2,2-dimethylpropionate]
- solubility in words (acetonitrile and isopropanol): sparingly soluble
- solubility in words (methanol and ethanol): very soluble
